Reference: US20210379099A1 (priority 2020, published 2021)
Some compounds may have been tested in ways that are not shown here.

Legend:
[1] = ITC of CB[8]•guest complexes; type: binding
[2] = ITC of Me4CB[8]•guest complexes; type: binding
[3] = ITC best fit, 20 mM NaH2PO4 buffer (pH=7.4), figure legends
[4] = ITC best fit, 20 mM NaH2PO4 buffer (pH=7.4), figure legends and text
[5] = ITC sequential binding sites model, pH=7.4
[6] = ITC, 20 mM NaH2PO4 buffer (pH = 7.4), 298K, n = 1, Table 1
[7] = ITC, pH 7.4, 298K, n = 2, Table 1

SMILES: CCC(=O)N(c1ccccc1)C1CCN(CCc2ccccc2)CC1
- ΔH (ΔH1) of guest with CB[8] [1, 3]: −10.8±0.06
- Ka (Ka1) of guest with CB[8] [1, 4]: (1.9±0.09)×10^7 M^−1
- Ka2 of guest with CB[8] [1, 5]: (3.7±0.04)×10^5 M^−1
- ΔH2 of guest with CB[8] [1, 5]: −7.67±0.04
- Ka (CB[8]•G) [1, 6]: (1.9 ± 0.09) × 10^7 M^−1
- ΔH° (CB[8]•G) [1, 6]: (−10.8 ± 0.06) kcal/mol
- Ka (CB[8]•guest) ([1]; ITC, n = 1, Table 2): (1.9 ± 0.09) × 10^7 M^−1
- ΔG° (CB[8]•guest) ([1]; ITC, n = 1, Table 2): -9.94 kcal/mol
- ΔH° (CB[8]•guest) ([1]; ITC, n = 1, Table 2): (−10.8 ± 0.06) kcal/mol
- Ka (CB[8]•guest), second binding ([1]; ITC, n = 2, Table 2): (3.7 ± 0.04) × 10^5 M^−1
- ΔG° (CB[8]•guest), second binding ([1]; ITC, n = 2, Table 2): -7.60 kcal/mol
- ΔH° (CB[8]•guest), second binding ([1]; ITC, n = 2, Table 2): (−7.67 ± 0.04) kcal/mol
- Ka (CB[8]•G), second binding ([1]; ITC, pH 7.4, 298K, n = 2 (second guest, sequential binding), Table 1): (3.7 ± 0.04) × 10^5 M^−1
- ΔH° (CB[8]•G), second binding [1, 7]: (−7.67 ± 0.04) kcal/mol
- ΔH (ΔH1) of guest with Me4CB[8] [2, 3]: −3.58±0.01
- Ka (Ka1) of guest with Me4CB[8] [2, 4]: (1.98±0.02)×10^6 M^−1
- Ka2 of guest with Me4CB[8] [2, 5]: (9.52±0.03)×10^4 M^−1
- ΔH2 of guest with Me4CB[8] [2, 5]: −1.94±0.01
- Ka (Me4CB[8]•G) [2, 6]: (1.98 ± 0.02) × 10^6 M^−1
- ΔH° (Me4CB[8]•G) [2, 6]: (−3.58 ± 0.01) kcal/mol
- Ka (Me4CB[8]•guest) ([2]; ITC, n = 1, Table 3): (1.98 ± 0.02) × 10^6 M^−1
- ΔH° (Me4CB[8]•guest) ([2]; ITC, n = 1, Table 3): (−3.58 ± 0.01) kcal/mol
- Ka (Me4CB[8]•guest), second binding ([2]; ITC, n = 2, Table 3): (9.52 ± 0.03) × 10^4 M^−1
- ΔH° (Me4CB[8]•guest), second binding ([2]; ITC, n = 2, Table 3): (−1.94 ± 0.01) kcal/mol
- Ka (Me4CB[8]•G), second binding [2, 7]: (9.52 ± 0.03) × 10^4 M^−1
- ΔH° (Me4CB[8]•G), second binding [2, 7]: (−1.94 ± 0.01) kcal/mol
